For the test, the target named is T1, TGF-beta receptor type-1 (Homo sapiens) (UniProt P36897).
T1 sequence (whole entry): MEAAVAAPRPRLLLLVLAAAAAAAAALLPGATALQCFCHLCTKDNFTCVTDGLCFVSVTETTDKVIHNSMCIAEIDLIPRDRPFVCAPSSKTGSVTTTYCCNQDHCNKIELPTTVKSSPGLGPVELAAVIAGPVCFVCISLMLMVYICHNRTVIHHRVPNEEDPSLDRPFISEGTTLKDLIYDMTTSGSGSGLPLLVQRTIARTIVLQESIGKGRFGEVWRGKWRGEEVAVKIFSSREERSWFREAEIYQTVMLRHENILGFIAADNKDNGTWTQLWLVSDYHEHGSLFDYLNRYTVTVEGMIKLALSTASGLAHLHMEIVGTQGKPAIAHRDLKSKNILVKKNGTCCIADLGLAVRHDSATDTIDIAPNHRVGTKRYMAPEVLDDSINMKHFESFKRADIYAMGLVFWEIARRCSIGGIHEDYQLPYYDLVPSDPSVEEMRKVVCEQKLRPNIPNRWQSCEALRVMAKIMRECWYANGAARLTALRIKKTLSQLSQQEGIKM
Description: Inhibition of recombinant GST-tagged human ALK5 expressed in baculovirus infected Sf9 insect cells assessed as residual activity at 10 uM. The gist of the method:
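Single-point kinase screen at 10 μM, in duplicate; ALK5 as human GST-fusion from baculovirus/Sf9, p38α as untagged human protein from E. coli; residual activity relative to DMSO vehicle, mean ± SD of two independent experiments.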

Structures are written as SMILES.

Turning to `Cc1cccc(-c2nn3c(c2-c2ccnc4ccc(C(N)=O)cc24)CCC3)n1` [GALUNISERTIB], the Activity came to 1%.

Values taken from ChEMBL document CHEMBL4613227, “Synthesis and evaluation of the HIF-1α inhibitory activity of 3(5)-substituted-4-(quinolin-4-yl)- and 4-(2-phenylpyridin-4-yl)pyrazoles as inhibitors of ALK5” (Bioorg Med Chem Lett, 2020).
